# AlphaSeq binding of Ab-14 heavy chain variants to a spike HR2 peptide

From the AlphaSeq antibody data of Li et al. 2023 (doi:10.1038/s41467-023-39022-2), copy in the FLAb collection.

All variants were tested on one target, the spike HR2 peptide PDVDLGDISGINAS (SARS-CoV-2).

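The parent was found by panning a naive human phage display library on the peptide. These sequences belong to a second round, designed from the earlier measurements on random variants of the parent. Their group label is 14H_GP_Gibbs (GP: Gaussian process model; Gibbs: Gibbs sampling; a sequence that several methods proposed may carry one label only). The scFvs were displayed on barcoded MATa yeast, the peptide on MATalpha yeast. Mating (16 h, 30 °C) was followed by selection of diploids and sequencing of their barcodes. Scores were corrected for input abundance and mapped to Kd with protein pairs of known affinity run in the same pool. The assay was run in six technical replicates.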

Parent scFv Ab-14: VH joined to VL by a (GGGGS)3 linker. Changes lie in the heavy chain CDRs alone.
VH: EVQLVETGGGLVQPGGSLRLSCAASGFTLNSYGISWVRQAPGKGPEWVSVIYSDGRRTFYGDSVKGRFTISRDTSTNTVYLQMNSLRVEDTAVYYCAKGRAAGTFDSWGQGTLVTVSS
VL: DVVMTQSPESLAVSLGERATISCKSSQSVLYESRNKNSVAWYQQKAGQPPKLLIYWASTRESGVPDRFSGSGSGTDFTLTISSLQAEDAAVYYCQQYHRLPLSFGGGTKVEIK

Substitutions are numbered in sequence along the VH above, starting at 1 (not Kabat).
The read-out is the apparent dissociation constant on a log10 scale (nM): the lower, the stronger.
An entry "n.d." has no value in the source: the pair was not observed among the diploids in that replicate. This suggests poor binding but is not conclusive.

| # | changes | replicates, log10 nM | empty controls |
|---|---|---|---|
| 1 | R100D+A101E+S107T | 0.54 0.85 0.47 0.68 0.47 0.22 | 1 of 18 (1.55) |
| 2 | G26K+T28E+G61A+A101T+S107T | 0.16 0.20 0.15 0.10 0.35 0.38 | 1 of 18 (1.53) |
| 3 | T28D+F59M+A101V | -0.02 0.00 -0.42 -0.17 0.13 0.10 | 0 of 18 |
| 4 | T28E+G61I+S63E+R100K+A101T | 0.58 0.83 0.86 0.82 0.82 0.94 | 1 of 18 (2.98) |
| 5 | T28D+A101Q+S107F | 1.40 2.05 0.33 0.66 0.83 1.42 | 0 of 18 |
| 6 | T28G+R100N+A101T | -0.04 0.72 0.98 -0.46 0.18 -0.34 | 0 of 18 |
| 7 | N30D+R100W+A101V | 1.24 n.d. 1.34 1.16 2.25 1.67 | 0 of 18 |
| 8 | T28K+G61K+R100K+A101T | n.d. 2.51 1.15 2.07 3.45 2.35 | 0 of 18 |
| 9 | T28D+S31E+R100K+S107W | n.d. 0.85 0.83 n.d. 2.33 0.54 | 0 of 18 |
| 10 | T28S+S63N+R100M+A101Q | -0.07 0.65 0.44 0.25 0.43 0.34 | 0 of 18 |
| 11 | T28D+S31T+R100E+S107T | n.d. n.d. n.d. n.d. n.d. n.d. | 0 of 18 |
| 12 | T28N+S63Q+R100N+A101T | 0.28 0.26 0.02 -0.02 -0.01 0.30 | 0 of 18 |
| 13 | T28N+S31N+A101N | 0.54 1.06 1.15 0.31 0.90 0.83 | 0 of 18 |
| 14 | S31E+R56Q+S63D+A101T+S107T | n.d. n.d. n.d. n.d. n.d. n.d. | 0 of 18 |
| 15 | T28S+R100I+A101N+S107T | 0.07 0.32 0.25 -0.15 0.30 1.11 | 0 of 18 |
| 16 | T28S+S31E+G61A+S63M+R100T | n.d. 0.12 -1.37 -1.24 n.d. -0.36 | 0 of 18 |
| 17 | S63D+R100Q+A101T+S107V | 0.91 -0.16 1.24 0.11 0.42 0.68 | 0 of 18 |
| 18 | N30E+R56Q+G61A+A101V | 0.16 0.09 0.09 0.20 0.24 0.22 | 2 of 18 (2.81) |
| 19 | T28Q+R56M+G61S+S63N+A101T | 0.80 0.27 0.57 -0.11 1.08 1.17 | 0 of 18 |
| 20 | R56K+G61S+S63R+R100K+S107T | 0.67 0.91 1.10 1.18 1.17 1.48 | 1 of 18 (2.25) |
| 21 | T28V+S31N+G61V+A101T | n.d. 1.65 1.85 n.d. n.d. 1.79 | 1 of 18 (1.73) |
| 22 | T28A+S31T+F59A+A101Q | 0.55 0.56 0.91 0.01 0.22 0.33 | 0 of 18 |
| 23 | T28S+S31E+G61E+A101N | -0.83 -0.53 -0.89 -0.91 -0.80 -0.74 | 0 of 18 |
| 24 | F27K+T28S+S31E+S63W+A101T | n.d. n.d. n.d. n.d. n.d. n.d. | 0 of 18 |
| 25 | T28S+G61I+R100N+S107L | n.d. 0.35 n.d. 0.83 0.41 0.85 | 0 of 18 |
| 26 | N30E+G61A+S63R+S107T | n.d. n.d. n.d. -1.56 n.d. n.d. | 0 of 18 |
| 27 | T28N+G61V+S63K+A101N | n.d. n.d. n.d. n.d. n.d. n.d. | 0 of 18 |
| 28 | T28S+S63P+R100N+S107N | 2.24 1.79 1.10 1.00 1.97 1.56 | 1 of 18 (2.02) |
| 29 | T28E+A101H+S107T | n.d. 1.68 n.d. 1.43 1.62 2.08 | 1 of 18 (2.14) |
| 30 | T28E+G61A+S63H+R100K+A101T | 2.07 0.94 1.21 1.56 1.15 n.d. | 0 of 18 |
| 31 | T28D+S63Q+A101E+S107N | 0.36 0.25 0.92 0.66 0.41 0.76 | 0 of 18 |

From the list, the first 4 with no signal in any replicate:

changes,"replicates, log10 nM",empty controls
T28D+S31T+R100E+S107T,n.d. n.d. n.d. n.d. n.d. n.d.,0 of 18
S31E+R56Q+S63D+A101T+S107T,n.d. n.d. n.d. n.d. n.d. n.d.,0 of 18
F27K+T28S+S31E+S63W+A101T,n.d. n.d. n.d. n.d. n.d. n.d.,0 of 18
T28N+G61V+S63K+A101N,n.d. n.d. n.d. n.d. n.d. n.d.,0 of 18

In the paper, a design with two or fewer of six values counts as a poor binder.
The range of this assay differs from that of the first round, and the authors advise against merging the two.
Background: pairings of all heavy chain designs with three empty control strains gave a value in 1% of cases (median 2.08, 5th percentile 0.84). Values in that range, when seen in few replicates, are hard to tell from nonspecific mating. For each scFv, signals with the empty controls are counted beside the result, with their mean in brackets.
The parent sequence was in this pool as ten entries: three were never detected, three once, and four in most replicates, with averages from 0.34 to 2.37.